For two substances, Ki results are on record in US8026252B2 (priority 2005, dated 2011).

Protein sequences, listed by entry. Tags and fused reporters are not part of them.
UniProt P35372, whole entry: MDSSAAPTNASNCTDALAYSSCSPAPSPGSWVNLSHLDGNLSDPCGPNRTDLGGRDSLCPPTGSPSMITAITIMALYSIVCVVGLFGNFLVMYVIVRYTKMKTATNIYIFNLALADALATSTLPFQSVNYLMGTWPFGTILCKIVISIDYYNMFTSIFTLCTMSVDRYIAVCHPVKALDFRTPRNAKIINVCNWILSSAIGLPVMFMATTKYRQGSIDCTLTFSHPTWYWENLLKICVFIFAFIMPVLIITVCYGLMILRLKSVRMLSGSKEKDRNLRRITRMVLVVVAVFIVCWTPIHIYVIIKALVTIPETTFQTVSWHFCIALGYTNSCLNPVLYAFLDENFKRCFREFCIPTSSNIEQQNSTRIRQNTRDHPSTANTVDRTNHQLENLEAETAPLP

For this experiment, the target named is T1, human μ opioid receptor (Homo sapiens, UniProt P35372).
T1 construct: expressed in transfected cells
Type of experiment: binding. As to conditions: read-out: [3H]DAMGO (μ).

“And” between values parts separate entries of the source, which are not always exact repeats. Equal values may be shown once.

As for “(+)-3-(Cyclopropylmethyl)-1,2,3,4,5,6-hexahydro-cis-6,11-dimethyl-N-(2-[1,1′-biphenyl]-4-ylethyl)-2,6-methano-3-benzazocine-8-carboxamide [Example 17]”, the Ki is 7.8 nM and 6.4 nM.

Turning to “(±)-3-(Cyclopropylmethyl)-1,2,3,4,5,6-hexahydro-cis-6,11-dimethyl-N-(2-[1,1′-biphenyl]-4-ylethyl)-2,6-methano-3-benzazocine-8-carboxamide [Example 15]”, the Ki is 0.048 ± 0.0014 nM.
